Target: recombinant human Estrogen Receptor alpha ligand binding domain (ER alpha-LBD (GST)) (Homo sapiens (Human), UniProt P03372)
Assay: ERα binding assay (LanthaScreen TR-FRET competition)
Conditions: read-out: ER binding IC50 value; competitive displacement of Fluormone ES2 tracer, 4 hours room temperature

The chains behind the UniProt entries cited, without tags or fusion partners. Residues count along the entry.
UniProt P03372, 307-554: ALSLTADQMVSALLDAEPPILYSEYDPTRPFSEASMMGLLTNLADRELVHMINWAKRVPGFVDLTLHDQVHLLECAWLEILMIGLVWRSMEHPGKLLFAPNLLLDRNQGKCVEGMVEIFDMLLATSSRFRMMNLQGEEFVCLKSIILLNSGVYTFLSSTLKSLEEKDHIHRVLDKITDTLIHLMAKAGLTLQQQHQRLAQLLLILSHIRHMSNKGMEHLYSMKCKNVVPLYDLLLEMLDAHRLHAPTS

| Structure (SMILES) | IC50 [nM] |
| --- | --- |
| C[C@@H]1Cc2c(ccc3[nH]ncc23)[C@@](C)(c2ccc(OCCN3CC(CF)C3)cc2)N1CC1(F)CC1 [Example 30, (6R,8R)-7-((1-fluorocyclopropyl)methyl)-6-(4-(2-(3-(fluoromethyl)azetidin-1-yl)ethoxy)phenyl)-6,8-dimethyl-6,7,8,9-tetrahydro-3H-pyrazolo[4,3-f]isoquinoline] | 0.98 |
| C[C@@H]1Cc2c(ccc3[nH]ncc23)[C@@H](c2ccc(OCCN3CC(CF)C3)cc2)N1CC1(F)COC1 [Example 31, (6R,8R)-6-(4-(2-(3-(fluoromethyl)azetidin-1-yl)ethoxy)phenyl)-7-((3-fluorooxetan-3-yl)methyl)-8-methyl-6,7,8,9-tetrahydro-3H-pyrazolo[4,3-f]isoquinoline] | 1.4 |
| C[C@@H]1Cc2c(ccc3[nH]ncc23)[C@@](C)(c2ccc(OCCN3CC(CF)C3)cc2)N1CC1(F)COC1 [Example 32, (6R,8R)-6-(4-(2-(3-(fluoromethyl)azetidin-1-yl)ethoxy)phenyl)-7-((3-fluorooxetan-3-yl)methyl)-6,8-dimethyl-6,7,8,9-tetrahydro-3H-pyrazolo[4,3-f]isoquinoline] | 0.67 |
| CC(C)CN1[C@H](c2c(F)cc(OCCN3CC(CF)C3)cc2F)c2ccc3[nH]ncc3c2C[C@H]1C [Example 33, (6S,8R)-6-(2,6-difluoro-4-(2-(3-(fluoromethyl)azetidin-1-yl)ethoxy)phenyl)-7-isobutyl-8-methyl-6,7,8,9-tetrahydro-3H-pyrazolo[4,3-f]isoquinoline] | 0.9 |
| CC(C)CN1C(c2c(F)cc(OCCN3CC(CF)C3)cc2F)c2ccc3[nH]ncc3c2CC1(C)C (centres unmarked) [Example 36, 6-(2,6-difluoro-4-(2-(3-(fluoromethyl)azetidin-1-yl)ethoxy)phenyl)-7-isobutyl-8,8-dimethyl-6,7,8,9-tetrahydro-3H-pyrazolo[4,3-f]isoquinoline] | 1.9 |
| CC(C)(F)CN1C(c2c(F)cc(OCCN3CC(CF)C3)cc2F)c2ccc3[nH]ncc3c2CC1(C)C (centres unmarked) [Example 37, 6-(2,6-difluoro-4-(2-(3-(fluoromethyl)azetidin-1-yl)ethoxy)phenyl)-7-(2-fluoro-2-methylpropyl)-8,8-dimethyl-6,7,8,9-tetrahydro-3H-pyrazolo[4,3-f]isoquinoline] | 1 |
| C[C@@H]1Cc2c(ccc3[nH]ncc23)[C@@H](c2c(F)cc(OCCN3CC(C(F)F)C3)cc2F)N1CC(C)(C)F [Example 38, (6S,8R)-6-(4-(2-(3-(difluoromethyl)azetidin-1-yl)ethoxy)-2,6-difluorophenyl)-7-(2-fluoro-2-methylpropyl)-8-methyl-6,7,8,9-tetrahydro-3H-pyrazolo[4,3-f]isoquinoline] | 0.58 |
| C[C@@H]1Cc2c(ccc3[nH]ncc23)[C@@H](c2ccc(OCCN3CC(CF)C3)cc2C#N)N1CC1(F)CC1 [Example 39, 2-((6S,8R)-7-((1-fluorocyclopropyl)methyl)-8-methyl-6,7,8,9-tetrahydro-3H-pyrazolo[4,3-f]isoquinolin-6-yl)-5-(2-(3-(fluoromethyl)azetidin-1-yl)ethoxy)benzonitrile] | 2.8 |
| CC(C)CN1[C@H](c2ccc(OCCN3CC(CF)C3)cn2)c2ccc3[nH]ncc3c2C[C@H]1C [Example 40, (6S,8R)-6-(5-(2-(3-(fluoromethyl)azetidin-1-yl)ethoxy)pyridin-2-yl)-7-isobutyl-8-methyl-6,7,8,9-tetrahydro-3H-pyrazolo[4,3-f]isoquinoline] | 9.4 |
| C[C@@H]1Cc2c(ccc3[nH]ncc23)[C@@H](c2ccc(OCCN3CC(CF)C3)cn2)N1CC(C)(F)F [Example 41, (6S,8R)-7-(2,2-difluoropropyl)-6-(5-(2-(3-(fluoromethyl)azetidin-1-yl)ethoxy)pyridin-2-yl)-8-methyl-6,7,8,9-tetrahydro-3H-pyrazolo[4,3-f]isoquinoline] | 1.8 |
| COc1cc(OCCN2CC(CF)C2)ncc1[C@@H]1c2ccc3[nH]ncc3c2C[C@@H](C)N1CC1(F)CC1 [Example 42, (6S,8R)-7-((1-fluorocyclopropyl)methyl)-6-(6-(2-(3-(fluoromethyl)azetidin-1-yl)ethoxy)-4-methoxypyridin-3-yl)-8-methyl-6,7,8,9-tetrahydro-3H-pyrazolo[4,3-f]isoquinoline] | 6.6 |
| C[C@@H]1Cc2c(ccc3[nH]nc(F)c23)[C@@H](c2c(F)cc(OCCN3CC(CF)C3)cc2F)N1CC1(F)COC1 [Example 43, (6S,8R)-6-(2,6-difluoro-4-(2-(3-(fluoromethyl)azetidin-1-yl)ethoxy)phenyl)-1-fluoro-7-((3-fluorooxetan-3-yl)methyl)-8-methyl-6,7,8,9-tetrahydro-3H-pyrazolo[4,3-f]isoquinoline] | 2.2 |
| CC(C)CN1[C@H](c2c(F)cc(OCCN3CC(CF)C3)cc2F)c2ccc3[nH]nc(F)c3c2C[C@H]1C [Example 44, (6S,8R)-6-(2,6-difluoro-4-(2-(3-(fluoromethyl)azetidin-1-yl)ethoxy)phenyl)-1-fluoro-7-isobutyl-8-methyl-6,7,8,9-tetrahydro-3H-pyrazolo[4,3-f]isoquinoline] | 2.5 |
| CC1(C)Cc2c(ccc3[nH]ncc23)C(c2ccc(OCCN3CC(CF)C3)cn2)N1CC(F)F (centres unmarked) [Example 45, 7-(2,2-difluoroethyl)-6-(5-(2-(3-(fluoromethyl)azetidin-1-yl)ethoxy)pyridin-2-yl)-8,8-dimethyl-6,7,8,9-tetrahydro-3H-pyrazolo[4,3-f]isoquinoline] | 7.1 |
| COc1nc(OCCN2CC(CF)C2)ccc1[C@@H]1c2ccc3[nH]ncc3c2C[C@@H](C)N1CC1(F)CC1 [Example 46, (6S,8R)-7-((1-fluorocyclopropyl)methyl)-6-(6-(2-(3-(fluoromethyl)azetidin-1-yl)ethoxy)-2-methoxypyridin-3-yl)-8-methyl-6,7,8,9-tetrahydro-3H-pyrazolo[4,3-f]isoquinoline] | 4.9 |
| C[C@@H]1Cc2c(ccc3[nH]ncc23)[C@@H](c2c(F)cc(NCCN3CC(CF)C3)cc2F)N1CC(C)(C)F [Example 47, 3,5-difluoro-4-((6S,8R)-7-(2-fluoro-2-methylpropyl)-8-methyl-6,7,8,9-tetrahydro-3H-pyrazolo[4,3-f]isoquinolin-6-yl)-N-(2-(3-(fluoromethyl)azetidin-1-yl)ethyl)aniline] | 1.1 |
| C[C@@H]1Cc2c(ccc3[nH]ncc23)[C@@H](c2ncc(OCCN3CC(CF)C3)cc2F)N1CC(F)F [Example 48, (6S,8R)-7-(2,2-difluoroethyl)-6-(3-fluoro-5-(2-(3-(fluoromethyl)azetidin-1-yl)ethoxy)pyridin-2-yl)-8-methyl-6,7,8,9-tetrahydro-3H-pyrazolo[4,3-f]isoquinoline] | 4.1 |
| C[C@@H]1Cc2c(ccc3[nH]ncc23)[C@@H](c2ccc(OCCN3CC(CF)C3)cn2)N1CC(F)(F)F [Example 49, (6S,8R)-6-(5-(2-(3-(fluoromethyl)azetidin-1-yl)ethoxy)pyridin-2-yl)-8-methyl-7-(2,2,2-trifluoroethyl)-6,7,8,9-tetrahydro-3H-pyrazolo[4,3-f]isoquinoline] | 2.2 |
| C[C@@H]1Cc2c(ccc3[nH]ncc23)[C@@H](c2ncc(OCCN3CC(CF)C3)cc2F)N1CC(F)(F)F [Example 50, (6S,8R)-6-(3-fluoro-5-(2-(3-(fluoromethyl)azetidin-1-yl)ethoxy)pyridin-2-yl)-8-methyl-7-(2,2,2-trifluoroethyl)-6,7,8,9-tetrahydro-3H-pyrazolo[4,3-f]isoquinoline] | 2.1 |
| C[C@@H]1Cc2c(ccc3[nH]ncc23)[C@@H](c2ccc(OCCN3CC(CF)C3)cn2)N1CC(F)F [Example 51, (6S,8R)-7-(2,2-difluoroethyl)-6-(5-(2-(3-(fluoromethyl)azetidin-1-yl)ethoxy)pyridin-2-yl)-8-methyl-6,7,8,9-tetrahydro-3H-pyrazolo[4,3-f]isoquinoline] | 5.9 |

Reference: patent US10125135B2, “Chemical compounds” (AstraZeneca AB, priority 2016, dated 2018)
